Columns and labels:
[1] = test system: Gastrointestinal ulcer formation in fed rats; experiment: Gastrointestinal ulcer formation in fed rats (ulcerogenicity); settings: rat, in vivo
Experimental: TEST 4. ULCEROGENICITY IN GASTROINTESTINAL TRACT
Gastrointestinal ulcer formation in fed rats
The test was carried out according to the method described in Science, 170, 183 (1970).

in vivo [2] = settings: rat, po
in vivo [3] = settings: rat, po; remark: listed apart in the source
Experimental: (§1) (b) Repeated administrations in rats
(§2) Test compounds were orally administered once daily for 5 days, and LD50 -value was calculated from the mortality on the 6th day.

[4] = in vivo
Source text: In the following description, the therapeutic index means LD50 /ED50 (or MED), and the safety index means UD50 /ED50 (or MED).

[5] = Safety index (UD50/ED50 or MED), separation of activity from ulcerogenicity; settings: in vivo
Source text: From these diagrams, the correlation between the pharmacological activity of each compound and its ulcerogenicity and toxicity, i.e. the safety margin of each compound, can be clearly seen. In these Figures, the lines and letters have the following meanings:
The following conclusions can be drawn from Tables I to III and FIGS. 1 and 2. In the following description, the therapeutic index means LD50 /ED50 (or MED), and the safety index means UD50 /ED50 (or MED). The safety margin of a given compound is broader when it has larger therapeutic and or safety indices.

rats = experiment: Overall comparison of lethal toxicity (Test 5); type: in vivo; settings: vs compound 1
Experimental: (a) Single administration in rats
The mortality was observed on the 7th day after single administration of test compounds, and LD50 -value was calculated according to the method of Litchfield and Wilcoxon.
as §1, §2

With `Cc1ccc2c(c1)CC(=O)c1cc(CC(=O)O)ccc1O2` [compound B, 8-Methyl-10,11-dihydro-11-oxodibenz[b,f]oxepin-2-acetic acid] the “ulcerogenicity relative to indomethacin” value [1] was “about 1/6”, the LD50 at 168 h (in vivo [2]) was 326 mg/kg and the LD50 at 144 h (in vivo [3]) was over 60 mg/kg. The “therapeutic index compared with indomethacin” value [4] was “far larger therapeutic indices than indomethacin”.
For `CC(C(=O)OCCOCCO)c1ccc2c(c1)C(=O)Cc1ccccc1O2` (racemic) [compound D, 2-(2-Hydroxyethoxy)ethyl dl-2-(10,11-dihydro-11-oxodibenz[b,f]oxepin-2-yl)propionate], the “ulcerogenicity relative to compound 1” value [1] was “less than one-half”, the “breadth of safety margin compared with compound 1” value [4] was “far superior to compound 1” and the “therapeutic index compared with indomethacin” value [4] was “far larger therapeutic indices than indomethacin”. For the same compound, the “therapeutic index relative to compound 1 (in words)” value [4] was “about two times”, the “safety index relative to compound 1 (in words)” value [5] was “about two times” and the “toxicity relative to compound 1” value (rats) was “less than one-half”.
